Here are results for 48 compounds from PubChem BioAssay AID651647 (Sanford-Burnham Center for Chemical Genomics, 2012).

Structures are written as SMILES. The entries are a selection whose mix differs from that of the whole data set. Some salts or complexes appear as unconnected parts, following the source record. Active and inactive are the calls of the source.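 Rule for the calls: active = GFP/RFP ratio change of at least 30% with cell ATP level not reduced by more than half and red fluorescence within 50% of control; inactive = the rest, inconclusive results apart.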

This assay concerns the target Matrix metalloproteinase-14 (Homo sapiens) (UniProt P50281). Nature of the assay: MT1-MMP activation inhibitors, cellular reporter – HT1080 RFP-PRO-GFP cells, GFP/RFP fluorescence, primary screen (AID 651647). As to conditions: overnight, at 20 µM, stronger effect = higher value, percent of plate control window, DMSO zero. The method, boiled down:
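Test system: HT1080 RFP-PRO-GFP cells; Benchmarks: DMSO and RFP-L50D-GFP cell wells; Timing: cells overnight before dosing, compound overnight, 37 °C, 5% CO2; Compound: one 20 µM compound dose with 1% DMSO; Read-out: GFP/RFP fluorescence ratio.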
Turning to `O=[N+]([O-])c1cc([N+](=O)[O-])c(C(F)(F)F)c([N+](=O)[O-])c1O`, the GFP/RFP ratio change was inactive: 2.54%.
Then `Cc1ccccc1NP(C)(=O)Nc1ccccc1C`, with inactive: 0.879%; and `CP(=O)(Nc1ccc2c(c1)OCCO2)Oc1ccccc1` (stereo not drawn), with inactive: -2.61%; and `CCOP(C)(=S)SCC(=O)NC(C)(CC)C(=O)O` (stereo not drawn), with inactive: 2.34%.
Then `CP(=O)(Nc1ccc(SC(F)(F)F)cc1)Oc1ccc(F)cc1` (stereo not drawn), with inactive: 6.38%; and `Cc1c(C(c2ccc3c(c2)OCO3)c2c(C)n(C)n(-c3ccccc3)c2=O)c(=O)n(-c2ccccc2)n1C.O=[N+]([O-])c1cc([N+](=O)[O-])c(O)c([N+](=O)[O-])c1`, with inactive: 2.02%.
For `Cc1cc(-c2cccc3ccccc23)c(C)cn1.O=[N+]([O-])c1cc([N+](=O)[O-])c(O)c([N+](=O)[O-])c1`, the GFP/RFP ratio change was inactive: -5.17%.
Then `O=[N+]([O-])c1cc([N+](=O)[O-])c(NCC2CCS(=O)(=O)C2)c([N+](=O)[O-])c1` (stereo not drawn), with inactive: -13.4%; and `O=[N+]([O-])c1ccc(OP2(=O)COCCO2)cc1` (stereo not drawn), with inactive: 2%; and `COc1ccc(NP(C)(=O)Oc2ccccc2OC)cc1` (stereo not drawn), with inactive: 1.17%.
As for `CN(C)CCOC(=O)C(O)(c1ccccc1)C1CCCCC1` (stereo not drawn), the GFP/RFP ratio change was inactive: -5.09%.
Then `COc1ccc(OP(C)(=O)Nc2cccc(Br)c2)cc1` (stereo not drawn), with inactive: 2.54%; and `CCCCCOc1ccc(NP(C)(=O)Oc2ccc(Cl)cc2Cl)cc1` (stereo not drawn), with inactive: -0.69%.
For the compound `O=[N+]([O-])c1cc([N+](=O)[O-])c(OC2CCCCC2O)c([N+](=O)[O-])c1` (stereo not drawn), the GFP/RFP ratio change is inactive: 6.33%.
Under `CP(=O)(Nc1ccccc1)Oc1ccc(F)cc1` (stereo not drawn) stands inactive: -4.07%.
Then `CCN(CC)CCCOC(=O)C(O)(c1ccccc1)C1CCCCC1` (stereo not drawn), with inactive: -0.55%; and `Cc1c([N+](=O)[O-])cc([N+](=O)[O-])c(Br)c1[N+](=O)[O-]`, with inactive: -2.05%.
Under `COc1ccc(OP(C)(=O)Nc2ccc(SC(F)(F)F)cc2)cc1` (stereo not drawn) stands inactive: 0.466%; under `CCOC(=O)c1ccc(NP(C)(=O)Oc2ccc(F)cc2)cc1` (stereo not drawn), inactive: 2.81%.
As to `CCN(CC)CCCNc1ccccc1[N+](=O)[O-].O=[N+]([O-])c1cc([N+](=O)[O-])c(O)c([N+](=O)[O-])c1`, the GFP/RFP ratio change was inactive: 12.6%.
Under `COc1ccc2c(c1O)-c1c(O)c(OC)cc3c1[C@H](C2)[N+](C)(C)CC3.O=[N+]([O-])c1cc([N+](=O)[O-])c([O-])c([N+](=O)[O-])c1[O-]` stands inactive: 2.13%.
On to `O=C(OCCN1CCN(CCOCc2ccccc2)CC1)C(O)(c1ccccc1)c1ccccc1`, for which the GFP/RFP ratio change is inactive: 3.42%.
As for `CC(C)c1ccc(OP(C)(=O)Nc2ccc(SC(F)(F)F)cc2)cc1` (stereo not drawn), the GFP/RFP ratio change was inactive: 2.86%.
Then `CP(=O)(Nc1ccccc1F)Oc1ccccc1` (stereo not drawn), with inactive: -1.1%; and `O=[N+]([O-])c1cc([N+](=O)[O-])c(Nc2ccc(Cl)cc2)c([N+](=O)[O-])c1`, with inactive: 6.48%; and `CCc1ccc(OP(C)(=O)O)cc1`, with inactive: 0.773%.
Consider `CP(=O)(Nc1ccccn1)Oc1ccccc1` (stereo not drawn), for which the GFP/RFP ratio change is inactive: -3.65%.
Take `COc1ccccc1OP(C)(=O)Nc1ccc(C)cc1C` (stereo not drawn): the GFP/RFP ratio change is inactive: 5.87%.
Then `O=[N+]([O-])c1cc([N+](=O)[O-])c(Nc2ccccn2)c([N+](=O)[O-])c1`, with inactive: 22.2%.
Regarding `Cc1c(NP(C)(=O)Oc2ccc(C(C)C)cc2)c(=O)n(-c2ccccc2)n1C` (stereo not drawn), the GFP/RFP ratio change was inactive: -1.83%.
In the case of `CN(C)CCOC(=O)C(O)(c1ccccc1)C1CCCC1` (stereo not drawn), the GFP/RFP ratio change was inactive: 7.15%.
Then `COc1ccc(OP(C)(=O)Nc2ccccn2)cc1` (stereo not drawn), with inactive: -0.103%; and `COc1ccccc1OP(C)(=O)Nc1ccc(Br)cc1` (stereo not drawn), with inactive: -1.38%; and `CP(=O)(OCCOc1ccccc1)OCCOc1ccccc1`, with inactive: -1.35%.
Regarding `CCCCCCCCCCCCCCCC1C[N+](C)(C)CCOP(C)(=O)O1` (stereo not drawn), the GFP/RFP ratio change is inactive: -9.56%.
Then `CP(=O)(Nc1ccc(Cl)cc1Cl)Oc1ccccc1` (stereo not drawn), with inactive: 0.573%; and `COc1ccc(OP(C)(=O)Nc2ccccc2Br)cc1` (stereo not drawn), with inactive: -0.145%.
Then `COc1ccccc1OP(C)(=O)Nc1ccc(C)c(C)c1` (stereo not drawn), with inactive: -0.186%.
Then `O=C1C(O)=C([N+](=O)[O-])C(=O)C(O)=C1[N+](=O)[O-]`, with inactive: 2.96%.
As to `Cc1cc(C)cc(OP(C)(=O)Nc2cccc(C(F)(F)F)c2)c1` (stereo not drawn), the GFP/RFP ratio change was inactive: 2.82%.
In the case of `CP(=O)(OC12CC3CC(CC(C3)C1)C2)OC12CC3CC(CC(C3)C1)C2`, the GFP/RFP ratio change is inactive: -8.48%.
Take `CCOC(=O)c1ccc(NP(C)(=O)Oc2ccc(Cl)cc2)cc1` (stereo not drawn): the GFP/RFP ratio change was inactive: -0.635%.
Then `CP(=O)(Nc1ccc(Cl)cc1)Oc1ccc(F)cc1` (stereo not drawn), with inactive: 1.25%; and `CC(C)(C)c1ccc(OP(C)(=O)O)cc1`, with inactive: -0.725%; and `COc1ccccc1OP(C)(=O)Nc1ccccc1Br` (stereo not drawn), with inactive: 0.0357%.
For `CP(=O)(Oc1ccccc1)N1CCOC1=O` (stereo not drawn), the GFP/RFP ratio change is inactive: -3.43%.
For `CCc1ccc(OP(C)(=O)Nc2cccnc2)cc1` (stereo not drawn), the GFP/RFP ratio change is inactive: -1.76%.
Under `COc1ccccc1OP(C)(=O)Nc1c(C)n(C)n(-c2ccccc2)c1=O` (stereo not drawn) stands inactive: -5.06%.
